# In publication PMC8914349 (Molecular cancer therapeutics, 2020):
# Test: Single administration plasma pharmacokinetics in tumor-bearing mice
# Type: in vivo
# Conditions: mouse plasma
# In short: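 Nude mice bearing M1 or M5 s.c. xenografts received a single oral dose of trametinib 5.0 mg/Kg, sapanisertib 2.0 mg/Kg, or both. Plasma and tumor were taken from two mice per group per timepoint over 2–48 h. Validated LC-MS/MS was used; sapanisertib was read by MRM m/z 310.2→268.1, calibrated 1–1000 ng/mL. Noncompartmental analysis for destructive sampling gave Cmax, T1/2 and AUC to last timepoint, with AUC error by Bailer's method.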
structure (smiles),measurement,value
CC(=O)Nc1cccc(-n2c(=O)n(C3CC3)c(=O)c3c(Nc4ccc(I)cc4F)n(C)c(=O)c(C)c32)c1 [trametinib],change in trametinib plasma AUC in the presence of sapanisertib relative to trametinib alone,significant increase
